The text below walks through data of patent US5792851A, “Human prostaglandin transporter” (Albert Einstin College of Medicine of Yeshiva University, a …, priority 1996, dated 1998).

This test concerns the target human prostaglandin transporter (hPGT) (Homo sapiens, UniProt Q92959). Put plainly: Inhibition of hPGT-mediated tracer PGE2 uptake in transfected HeLa cells. In kind it is cell-based. The following applies: 0.1 µM.

With `CCCCC[C@H](O)/C=C/[C@H]1[C@H](O)CC(=O)[C@@H]1C/C=C\CCCC(=O)O` [PGE2], the “percent of the control 10-min tracer PGE2 uptake” value is recorded as 45.2 ± 1.4.
